The entries are a selection whose mix differs from that of the whole data set. Active and inactive are the calls of the source.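 Rule for the calls: active = blocking of liver enzyme CYP2C9 beyond about 50% at 5 µM (limit read from the data); inactive = the rest.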

By UniProt entry, the sequences of proteins in these tests, tags left out.
UniProt P11712, whole entry: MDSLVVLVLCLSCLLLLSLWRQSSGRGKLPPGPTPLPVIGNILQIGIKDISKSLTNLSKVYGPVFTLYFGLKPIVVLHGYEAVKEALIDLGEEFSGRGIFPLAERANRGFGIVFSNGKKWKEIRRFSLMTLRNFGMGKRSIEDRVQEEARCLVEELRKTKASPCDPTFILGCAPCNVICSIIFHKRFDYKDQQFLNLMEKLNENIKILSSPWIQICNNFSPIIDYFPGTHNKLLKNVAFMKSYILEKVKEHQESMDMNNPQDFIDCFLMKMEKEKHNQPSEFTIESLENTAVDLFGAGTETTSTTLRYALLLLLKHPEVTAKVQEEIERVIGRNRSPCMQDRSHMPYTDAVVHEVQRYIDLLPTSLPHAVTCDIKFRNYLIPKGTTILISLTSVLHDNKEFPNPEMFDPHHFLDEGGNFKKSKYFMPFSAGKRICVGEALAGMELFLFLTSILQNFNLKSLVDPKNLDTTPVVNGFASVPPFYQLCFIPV

The target of the assay is Cytochrome P450 2C9 (Homo sapiens) (UniProt P11712). Description: blockers of cytochrome P450 2C9 activity – biochemical, luminescence, ADME assay, primary screen (AID 777). Conditions: CYP2C9 Supersomes, luciferin-H conversion, at 5 µM, hits give high values.
Consider `N#CC1(Nc2ccccc2)CCN(CCc2ccccc2)CC1`, for which the inhibition is inactive: -3.5%.

On to `O=C(NCC1(N2CCOCC2)CCCCC1)c1cc(=O)[nH]c2ccccc12`, for which the inhibition was inactive: 2.6%.

Regarding `O=C(OC1CN2CCC1CC2)C1c2ccccc2Oc2ccccc21` (stereo not given), the inhibition was inactive: 4.7%.

`O=C(NCC1(N2CCOCC2)CCCCC1)c1cc2ccccc2o1`: the inhibition is inactive: 28.2%.

Regarding `COc1ccc(NC2CCN(CCc3ccccc3)CC2)c(OC)c1`, the inhibition is inactive: 8.2%.

`Fc1ccccc1NC1CCN(Cc2ccccc2)CC1`: the inhibition was inactive: 13%.

Consider `CCOc1ncccc1C(=O)NCC1(N2CCOCC2)CCCCC1`, for which the inhibition was active: 52.3%.

Regarding `CCC(CO)(C(=O)OC1CN2CCC1CC2)c1ccccc1` (stereo not given), the inhibition was inactive: -24%.

Turning to `N/C(=N\O)c1c(N)no[n+]1[O-]`, the inhibition is inactive: 8.1%.

Consider `c1ccc(CN2CCC(Nc3ccccc3)CC2)cc1`, for which the inhibition is active: 50.5%.

The values above are taken from PubChem BioAssay AID777 (Sanford-Burnham Center for Chemical Genomics, 2007).
